# Measurements taken from PubChem BioAssay AID463075 (University of Pittsburgh Molecular Library Screening Center, 2010).
# Only a part is listed here, and it is no random draw. Active and inactive are the calls of the source.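 How the source made its calls: active means activation, meaning protection from cell death, of at least 50% relative to plate controls; inactive means activation below 50%.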
# Assay: rescue of FADD-deficient Jurkat cells from TNF-alpha death – single concentration, primary screen (AID 463075);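 further: necroptosis triggered by 40 ng/mL TNF-alpha added together with compound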
# Conditions: Jurkat FADD-/- TNF necroptosis rescue, ATP luminescence, 24 h; at 10 µM; hits give high values; 0 = TNF only, 100 = no-TNF cells
row,SMILES,activation (protection from cell death)
1,CCc1nc2c(n1)c1c(non1O)c1c2no[n+]1[O-],inactive: -11.7%
2,O=C(O)c1ccccc1[As](=O)(O)O,inactive: 2.12%
